AlphaSeq binding of Ab-91 heavy chain variants to a spike HR2 peptide

Target: peptide PDVDLGDISGINAS, taken from heptad repeat 2 (HR2) of SARS-CoV-2 spike.

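The starting antibody came from a phage panning campaign against this peptide. Variants in AAYL51 differ from the parent at up to three CDR positions; double and triple changes were sampled at random. Affinity was read by AlphaSeq, a pooled yeast mating assay with surface-displayed partners. The frequency of each diploid, read from paired DNA barcodes, reflects how well the two displayed proteins bind. Read counts were normalised to the haploid input and turned into Kd by a linear fit to BCL2-family pairs of known affinity, for each replicate. There are three technical replicates.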

Parent scFv Ab-91: VL joined to VH by the linker GGGGSGGGGSGGGGS. Changes lie in the heavy chain CDRs alone.
VL: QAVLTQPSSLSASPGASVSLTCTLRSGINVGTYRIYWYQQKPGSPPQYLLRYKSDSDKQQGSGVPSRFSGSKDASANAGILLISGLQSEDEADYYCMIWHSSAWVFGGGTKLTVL
VH: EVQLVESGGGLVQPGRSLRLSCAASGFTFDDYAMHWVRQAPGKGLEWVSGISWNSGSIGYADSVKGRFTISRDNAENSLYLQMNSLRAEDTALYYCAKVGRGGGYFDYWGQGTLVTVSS

Variants are written as CDR1, CDR2 and CDR3 of the heavy chain (limits as in the source). Parent: GFTFDDYAMH, GISWNSGSIGYADSVK, VGRGGGYFDY.
Numbers give log10(Kd / nM), so 0 is 1 nM and 3 is 1 µM. Smaller is tighter.
A pair that was not seen in that replicate is written "nd"; this usually means weak binding, but a binder can also be missed.
Background: pairings of library AAYL51 with three empty control strains gave a value in 21% of cases (median 4.54, 5th percentile 3.26). Values in that range, when seen in few replicates, are hard to tell from nonspecific mating. For each scFv, signals with the empty controls are counted beside the result, with their mean in brackets.

| CDR-H1 | CDR-H2 | CDR-H3 | replicates, log10 nM | signal with controls |
|---|---|---|---|---|
| GFTFDTYAMH | GISWNSGSIGYADSVK | VGRGGGYFDY | 2.11 / 2.18 / 2.26 | 2/9 (5.43) |
| GFTFDDYAMH | GISGNSGSIGYADLVK | VGRGGGYPDY | 0.91 / 1.46 / 0.22 | 1/9 (4.30) |
| GFTFADYAMH | GISWNSGSIGYADSVK | VGRGGYYFDH | nd / nd / nd | 0/9 |
| GFTFRDYAMH | GISWNSCSIGYADSVK | VGRGDGYFDY | nd / 3.36 / nd | 1/9 (4.33) |
| GFTFDDYAMH | GISWNGGSINYADSVK | VGRGGGYFDY | nd / nd / nd | 0/9 |
| GFVSDDYAMH | GISWNSGSIGYADSVF | VGRGGGYFDY | 4.60 / nd / nd | 1/9 (4.65) |
| GFTFDDQAMH | GISRNSGSIGSADSVK | VGRGGGYFDY | nd / nd / nd | 2/9 (4.59) |
| GFTFDDYAMH | GISWNSGSIGAADSVK | VGRGGGNFDY | nd / nd / nd | 4/9 (4.03) |
| GFEFDDYAMH | GISWNSGSAGYADSVK | VGSGGGYFDY | 4.96 / nd / 4.16 | 0/9 |
| GFTFDDYAMH | GISWNSGSIGYADSLK | VGRCGGYFDY | nd / nd / nd | 0/9 |
| GFTFCHYAMH | GISWNSGSIGYADSVH | VGRGGGYFDY | 2.52 / 2.38 / 2.05 | 4/9 (5.54) |
| GFTFDDYAMH | GISWNRGSLGYADSVK | VGKGGGYFDY | nd / nd / nd | 0/9 |
| GFTFDDGDMH | GISWNSGDIGYADSVK | VGRGGGYFDY | 4.00 / 4.85 / nd | 8/9 (4.93) |
| GFTFDDYAMH | GISYNSGSFGYADSVK | VGRGGGYYDY | 4.09 / nd / nd | 3/9 (4.23) |
| GFAFDDYAMH | GISWNDGSPGYADSVK | VGRGGGYFDY | 6.30 / 5.18 / 5.29 | 6/9 (5.13) |
| GFTFDDYAMA | GISWNSGCICYADSVK | VGRGGGYFDY | 4.87 / 4.90 / nd | 5/9 (4.46) |
| GFTFDDYAMH | GISWWSGSIGYADSVK | VGRGGGYFDY | 5.16 / nd / nd | 1/9 (5.41) |
| GITFDDYAMH | GIMWNSGSIGYADSVK | VGRGYGYFDY | 4.71 / nd / nd | 0/9 |
| GFTFDDYAMH | QWSANSGSIGYADSVK | VGRGGGYFDY | nd / 4.83 / nd | 2/9 (4.24) |
| GFTFDDYAMH | GISWNSQSIGYADSVN | VGRGGGYFDF | nd / nd / nd | 2/9 (4.80) |
| GFTFDDYRHH | GISWNSGSIGYADSVI | VGRGGGYFDY | 5.23 / nd / nd | 0/9 |
| YFTFDDYAMH | GISWNSGSIGEAFSVK | VGRGGGYFDY | nd / 3.28 / nd | 0/9 |
| GFTFDDYAMH | GISWNSGYIGYADSVK | VGRGGGKFKY | nd / nd / nd | 0/9 |
| GFTFDWYAMH | GLSWNSGSIGYADSVK | VGRGGGYGDY | 2.70 / 2.32 / 2.60 | 0/9 |
| GFKFDDYAMH | LISWNSGSIGYTDSVK | VGRGGGYFDY | nd / nd / nd | 2/9 (3.98) |
| GFTFDDYAFH | GISWNSGSIGYADSTK | VGRGGGYFDY | nd / 3.22 / nd | 3/9 (3.50) |
| GFTFDDYAMH | GISWNSGSIPYADSVE | NGRGGGYFDY | 4.68 / nd / 4.33 | 3/9 (4.42) |
| GFTFDCYAMH | GISWNSGSIGYGDSVK | VGRGGGYFDY | 2.20 / 1.80 / 2.19 | 0/9 |
| GFTFDDYAMH | GISWNSGIIGYADSVK | RGRGGGYFDI | 4.12 / 4.90 / 5.09 | 7/9 (4.16) |
| GPVFDDYAMH | GMSWNSGSIGYADSVK | VGRGGGYFDY | nd / nd / 4.40 | 2/9 (4.04) |
| GFTFDDYAFH | GIVWNSGSIGYADSVK | VGRGGGMFDY | nd / nd / 4.21 | 1/9 (5.49) |
| GQTFDDYAMH | GINWNSMSIGYADSVK | VGRGGGYFDY | nd / nd / nd | 0/9 |
| GLTFDDYAMH | GISWNYGSIGYADSVK | VGIGGGYFDY | nd / nd / 3.71 | 0/9 |
| GFTFDDTAHH | GISWYSGSIGYADSVK | VGRGGGYFDY | nd / 4.76 / nd | 3/9 (4.80) |

A selection of 4 entries from above:

| CDR-H1 | CDR-H2 | CDR-H3 | replicates, log10 nM | signal with controls |
|---|---|---|---|---|
| GFTFDDGDMH | GISWNSGDIGYADSVK | VGRGGGYFDY | 4.00 / 4.85 / nd | 8/9 (4.93) |
| GFTFDDTAHH | GISWYSGSIGYADSVK | VGRGGGYFDY | nd / 4.76 / nd | 3/9 (4.80) |
| GFTFDDYAMH | GISWNGGSINYADSVK | VGRGGGYFDY | nd / nd / nd | 0/9 |
| GFTFDDYAMA | GISWNSGCICYADSVK | VGRGGGYFDY | 4.87 / 4.90 / nd | 5/9 (4.46) |

Parent in this assay: reference entry 1.86, copy in this library 0.88.

Data: MIT Lincoln Laboratory AlphaSeq set, Engelhart et al. 2022, doi:10.1038/s41597-022-01779-4, as distributed in FLAb.